Literature values as cited in patent publication US10759976B2, “Color changeable adhesives and methods of making such adhesives” (Sensor International, LLC, priority 2018, dated 2020).

Conditions: Table 2, carbon dioxide sensitive pigments/dyes

pKa: 7.8
Substance: β-methyl umbelliferone
